## Yeast mating assay 2: variants of the scFv Ab-91

The measurements come from Engelhart et al. 2022 (doi:10.1038/s41597-022-01779-4) through the FLAb antibody collection.

Binding partner: SARS-CoV-2 spike HR2 peptide, sequence PDVDLGDISGINAS.

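The parent was found by panning a naive human phage display library on the peptide. In library AAYL51, one, two or three CDR residues were substituted; doubles and triples were drawn at random. The assay is AlphaSeq: two haploid yeast populations carry antibody and antigen on their surface. Binding brings cells together so that they mate, and sequencing counts the barcode pairs among the diploids. Scores were corrected for input abundance and mapped to Kd with protein pairs of known affinity run in the same pool. The assay was run in three technical replicates.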

Parent: Ab-91, a human scFv built as VL, a 15-residue (Gly4Ser)3 linker, VH. Only the CDRs of the heavy chain vary.
VL: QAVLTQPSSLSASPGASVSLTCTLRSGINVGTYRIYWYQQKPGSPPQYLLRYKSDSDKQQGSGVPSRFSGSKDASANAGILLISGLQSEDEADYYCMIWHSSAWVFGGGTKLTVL
VH: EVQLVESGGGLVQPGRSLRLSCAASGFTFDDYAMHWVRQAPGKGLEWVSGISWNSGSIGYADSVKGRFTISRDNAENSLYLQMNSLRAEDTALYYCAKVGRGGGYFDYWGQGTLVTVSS

Variants are written as CDR1, CDR2 and CDR3 of the heavy chain (limits as in the source). Parent: GFTFDDYAMH, GISWNSGSIGYADSVK, VGRGGGYFDY. The read-out is the apparent dissociation constant on a log10 scale (nM): the lower, the stronger. "ND" means that the variant was in the library but no mating with the target was seen in that replicate; the authors take this as a sign of poor binding, and no number exists. Nonspecific signal, from three strains lacking the peptide, appeared in 21% of pairings of library AAYL51, centred on 4.54 (5% of these signals below 3.26); values are not corrected for it. Also given: how often the same scFv was detected with the empty control strains. In this assay the parent's reference entry averaged 1.86; its copy inside this library read 0.88.

The variant PFTFDDLAMH | GISWNSGSIGYADSVK | VGRQGGYFDY showed ND, ND, ND (controls 0 of 9).
The variant GFTFDDYAML | GISWNKGSAGYADSVK | VGRGGGYFDY showed ND, ND, ND (controls 0 of 9).
The variant GFTFDDYAME | GISWNSGSIGYADSVK | VFRGGGYFDY showed ND, ND, ND (controls 4 of 9).
The variant GFRFDDYAME | GIVWNSGSIGYADSVK | VGRGGGYFDY showed 5.30, ND, ND (controls 5 of 9).
The variant GFTFDDYAMH | TISWNSGSIGYHDSVK | VGRGGGYFDY showed 5.57, ND, ND (controls 2 of 9).
The variant GWTFDDYAMH | GISWNSGSIGYADSVK | YGRGGGYFDA showed 4.86, 4.59, 5.39 (controls 9 of 9).
The variant GFTFIDYAMH | GISSNSGSIGYRDSVK | VGRGGGYFDY showed ND, ND, ND (controls 0 of 9).
The variant GFTFDDYAMH | GISWNSGSIGFAQSVK | VGVGGGYFDY showed ND, ND, ND (controls 0 of 9).
The variant GFTFDDYAMH | GISWNSGWIGYADSVK | VIRGGGYEDY showed ND, ND, ND (controls 1 of 9).
The variant GFTFDTYAGH | GISWNSGSIGYADSVK | VGRGMGYFDY showed ND, ND, ND (controls 0 of 9).
The variant GFTFDDYAMH | GISWNSNSIGYADSVV | VGRGGGYFIY showed ND, 4.83, ND (controls 0 of 9).
The variant GFTFDDYAME | GIYWNSGSIGYADSVK | VGRGGGYFDM showed 4.94, 5.75, 5.00 (controls 6 of 9).
The variant GFTFDDYAMH | GKSWNSGSIGYAWSVK | VGRGGGYFDY showed 4.60, ND, ND (controls 1 of 9).
The variant GFNFDFYAMH | GISWNSGSIGFADSVK | VGRGGGYFDY showed ND, ND, ND (controls 0 of 9).
The variant GFTFDDYAMH | YISWNSGSIGYADSVK | VGRGGGYFDH showed 3.57, ND, 3.95 (controls 1 of 9).
The variant GGTFDDYAMY | GISWNSGSIGYADSVK | VGRGGPYFDY showed 4.96, ND, 4.89 (controls 6 of 9).
The variant GFTTDDYAMH | GISWNSGSIGYADQVK | VGRGGEYFDY showed 3.32, ND, ND (controls 0 of 9).
The variant GFLFDDYAMH | GISWNSGSIGYEDSVK | VGRGGGYFDM showed ND, ND, ND (controls 2 of 9).
The variant GFTFDDVAMH | GISWNKGSIGYADSVK | GGRGGGYFDY showed ND, ND, ND (controls 0 of 9).
The variant GFTFDDYAMH | VISWNSGSIGYADSVK | PGRGGDYFDY showed ND, ND, 5.44 (controls 4 of 9).
The variant GFTFDDYAMH | GGSWNSGSIGYADSVK | VIRGGGYFHY showed 5.36, ND, ND (controls 1 of 9).
The variant GYTFDDYAMD | GISWNSGSIGYADSVP | VGRGGGYFDY showed 5.09, 4.40, 4.98 (controls 8 of 9).
The variant GFMFDDYAGH | GISWNSGSTGYADSVK | VGRGGGYFDY showed 4.65, 4.89, 5.50 (controls 7 of 9).
The variant VFTFDDYAMH | GSSWNSGSIYYADSVK | VGRGGGYFDY showed 5.10, ND, ND (controls 1 of 9).
The variant GFTFRDYAMH | GIYWNSGSIGYPDSVK | VGRGGGYFDY showed ND, ND, ND (controls 1 of 9).
The variant GFTFDDYAMH | GISWNSGSIGYADHVW | VGRGGGYRDY showed 4.20, 4.07, ND (controls 6 of 9).
The variant GFTFDEYAMH | VISWNSGSIGYADSVK | VGRGNGYFDY showed ND, ND, ND (controls 0 of 9).
The variant GFTFDDYANH | GISWNSGSIGYADSVK | VGRGHGYFDY showed 4.34, 4.05, ND (controls 4 of 9).
The variant GFVFDDYAMH | GISWHSGSSGYADSVK | VGRGGGYFDY showed 2.90, 2.73, 2.05 (controls 1 of 9).
The variant GFTFNDYAMH | GISWNSGSICRADSVK | VGRGGGYFDY showed 3.96, 4.20, ND (controls 1 of 9).
The variant GFTFDDYAMH | GISWNSGSIGTADSVN | NGRGGGYFDY showed 5.34, ND, ND (controls 0 of 9).
The variant GFTFDDYAMH | GISWNSNSIGYDDSVS | VGRGGGYFDY showed ND, ND, ND (controls 0 of 9).
The variant GFTFDIYAMH | GISWNSGSIGYADSVK | VQRFGGYFDY showed ND, ND, ND (controls 0 of 9).

The 3 strongest on average among those seen in every replicate, once more:

CDR-H1,CDR-H2,CDR-H3,log10 Kd (nM) by replicate,signal with controls
GFVFDDYAMH,GISWHSGSSGYADSVK,VGRGGGYFDY,"2.90, 2.73, 2.05",1 of 9
GYTFDDYAMD,GISWNSGSIGYADSVP,VGRGGGYFDY,"5.09, 4.40, 4.98",8 of 9
GWTFDDYAMH,GISWNSGSIGYADSVK,YGRGGGYFDA,"4.86, 4.59, 5.39",9 of 9